Molecules are shown by their SMILES. Like-named read-outs stand apart in the source and are kept apart here.

By UniProt entry, the sequences of proteins in these tests, tags left out. Residues count along the entry.
UniProt P16444, 17-385 limits assumed: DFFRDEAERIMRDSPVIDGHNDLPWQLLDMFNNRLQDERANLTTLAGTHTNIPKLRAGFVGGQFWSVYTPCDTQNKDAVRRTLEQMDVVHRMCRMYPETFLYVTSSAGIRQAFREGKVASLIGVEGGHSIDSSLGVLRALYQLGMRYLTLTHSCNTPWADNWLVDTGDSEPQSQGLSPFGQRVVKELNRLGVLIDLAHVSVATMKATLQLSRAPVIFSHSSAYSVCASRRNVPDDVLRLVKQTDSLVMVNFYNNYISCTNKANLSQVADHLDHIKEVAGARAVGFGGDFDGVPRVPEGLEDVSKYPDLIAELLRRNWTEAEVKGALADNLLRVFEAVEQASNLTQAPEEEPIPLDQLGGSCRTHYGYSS

As usually defined, the IC50 is the midpoint of a concentration-inhibition curve.

For experiment [1], the target named is T1, Renal Dipeptidase (RDP) (Homo sapiens, UniProt P16444). Briefly: RDP inhibition assay (IC50), small intestine lysate, fluorogenic substrate ε-DNP-L-Lys-D-Amp. The conditions noted are these: read-out: RDP inhibition IC50, Table 2.
Experiment [2] deals with T1, Renal Dipeptidase (RDP).

`NC(CC1CCCCC1)P(=O)(O)C/C(=C\c1ccccc1I)C(=O)O` (centres unmarked): the IC50 at Renal Dipeptidase (RDP) [1] stood at 100 nM; at Renal Dipeptidase (RDP) [2] it was 300 nM.

(Values after patent US7785564B2, “Design and synthesis of renal dipeptidase inhibitors” (The Johns Hopkins University, priority 2002, dated 2010).)
